{"source": "IntAct's records for PubMed 24670654", "parents": {"B1": {"name": "RAC-alpha serine/threonine-protein kinase (Homo sapiens), P31749 (parent)", "chain": "MSDVAIVKEGWLHKRGEYIKTWRPRYFLLKNDGTFIGYKERPQDVDQREAPLNNFSVAQCQLMKTERPRPNTFIIRCLQWTTVIERTFHVETPEEREEWTTAIQTVADGLKKQEEEEMDFRSGSPSDNSGAEEMEVSLAKPKHRVTMNEFEYLKLLGKGTFGKVILVKEKATGRYYAMKILKKEVIVAKDEVAHTLTENRVLQNSRHPFLTALKYSFQTHDRLCFVMEYANGGELFFHLSRERVFSEDRARFYGAEIVSALDYLHSEKNVVYRDLKLENLMLDKDGHIKITDFGLCKEGIKDGATMKTFCGTPEYLAPEVLEDNDYGRAVDWWGLGVVMYEMMCGRLPFYNQDHEKLFELILMEEIRFPRTLGPEAKSLLSGLLKKDPKQRLGGGSEDAKEIMQHRFFAGIVWQHVYEKKLSPPFKPQVTSETDTRYFDEEFTAQMITITPPDQDDSMECVDSERRPHFPQFSYSASGTA"}}}
{"variants_of": "B1", "conditions": "with sin1_human MAPKAP1, Q9BPZ7"}
{"variant": "MSDVAIVKEGWLHKRGEYIKTWRPRYFLLKNDGTFIGYKERPQDVDQREAPLNNFSVAQCQLMKTERPRPNTFIIRCLQWTTVIERTFHVETPEEREEWTTAIQTVADGLKKQEEEEMDFRSGSPSDNSGAEEMEVSLAKPKHRVTMNEFEYLKLLGKGTFGKVILVKEKATGRYYAMKILKKEVIVAKDEVAHTLTENRVLQNSRHPFLTALKYSFQTHDRLCFVMEYANGGELFFHLSRERVFSEDRARFYGAEIVSALDYLHSEKNVVYRDLKLENLMLDKDGHIKITDFGLCKEGIKDGATMKTFCGTPEYLAPEVLEDNDYGRAVDWWGLGVVMYEMMCGRLPFYNQDHEKLFELILMEEIRFPRTLGPEAKSLLSGLLKKDPKQRLGGGSEDAKEIMQHRFFAGIVWQHVYEKKLSPPFKPQVTSETDTRYFDEEFTAQMITITPPDQDDSMECVDSERRPHFPQFSYSADGEA", "note": "[S477D;T479E]", "effect of a mutation on the interaction": "increasing interaction strength"}
{"variants_of": "B1", "conditions": "with ccna2_human CCNA2"}
{"variant": "MSDVAIVKEGWLHKRGEYIKTWRPRYFLLKNDGTFIGYKERPQDVDQREAPLNNFSVAQCQLMKTERPRPNTFIIACLQWTTVIERTFHVETPEEREEWTTAIQTVADGLKKQEEEEMDFRSGSPSDNSGAEEMEVSLAKPKHRVTMNEFEYLKLLGKGTFGKVILVKEKATGRYYAMKILKKEVIVAKDEVAHTLTENRVLQNSRHPFLTALKYSFQTHDRLCFVMEYANGGELFFHLSRERVFSEDRARFYGAEIVSALDYLHSEKNVVYRDLKLENLMLDKDGHIKITDFGLCKEGIKDGATMKTFCGTPEYLAPEVLEDNDYGRAVDWWGLGVVMYEMMCGRLPFYNQDHEKLFELILMEEIRFPRTLGPEAKSLLSGLLKKDPKQRLGGGSEDAKEIMQHRFFAGIVWQHVYEKKLSPPFKPQVTSETDTRYFDEEFTAQMITITPPDQDDSMECVDSERRPHFPQFSYSASGTA", "note": "[R76A]", "effect of a mutation on the interaction": "disrupting interaction strength"}
{"variant": "MSDVAIVKEGWLHKRGEYIKTWRPRYFLLKNDGTFIGYKERPQDVDQREAPLNNFSVAQCQLMKTERPRPNTFIIACAQWTTVIERTFHVETPEEREEWTTAIQTVADGLKKQEEEEMDFRSGSPSDNSGAEEMEVSLAKPKHRVTMNEFEYLKLLGKGTFGKVILVKEKATGRYYAMKILKKEVIVAKDEVAHTLTENRVLQNSRHPFLTALKYSFQTHDRLCFVMEYANGGELFFHLSRERVFSEDRARFYGAEIVSALDYLHSEKNVVYRDLKLENLMLDKDGHIKITDFGLCKEGIKDGATMKTFCGTPEYLAPEVLEDNDYGRAVDWWGLGVVMYEMMCGRLPFYNQDHEKLFELILMEEIRFPRTLGPEAKSLLSGLLKKDPKQRLGGGSEDAKEIMQHRFFAGIVWQHVYEKKLSPPFKPQVTSETDTRYFDEEFTAQMITITPPDQDDSMECVDSERRPHFPQFSYSASGTA", "note": "[R76A;L78A]", "effect of a mutation on the interaction": "decreasing interaction strength"}
{"variant": "MSDVAIVKEGWLHKRGEYIKTWRPRYFLLKNDGTFIGYKERPQDVDQREAPLNNFSVAQCQLMKTERPRPNTFIIACLQWTTVIERTFHVETPEEREEWTTAIQTVADGLKKQEEEEMDFRSGSPSDNSGAEEMEVSLAKPKHRVTMNEFEYLKLLGKGTFGKVILVKEKATGRYYAMKILKKEVIVAKDEVAHTLTENRVLQNSRHPFLTALKYSFQTHDRLCFVMEYANGGELFFHLSRERVFSEDRARFYGAEIVSALDYLHSEKNVVYRDLKLENLMLDKDGHIKITDFGLCKEGIKDGATMKTFCGTPEYLAPEVLEDNDYGRAVDWWGLGVVMYEMMCGRLPFYNQDHEKLFELILMEEIRFPRTLGPEAKSLLSGLLKKDPKQRLGGGSEDAKEIMQHRFFAGIVWQHVYEKKLSPPFKPQVTSETDTRYFDEEFTAQMITITPPDQDDSMECVDSERRPHFPQFSYSADGEA", "note": "[R76A;S477D;T479E]", "effect of a mutation on the interaction": "disrupting interaction strength"}
{"variant": "MSDVAIVKEGWLHKRGEYIKTWRPRYFLLKNDGTFIGYKERPQDVDQREAPLNNFSVAQCQLMKTERPRPNTFIIRCLQWTTVIERTFHVETPEEREEWTTAIQTVADGLKKQEEEEMDFRSGSPSDNSGAEEMEVSLAKPKHRVTMNEFEYLKLLGKGTFGKVILVKEKATGRYYAMKILKKEVIVAKDEVAHTLTENRVLQNSRHPFLTALKYSFQTHDRLCFVMEYANGGELFFHLSRERVFSEDRARFYGAEIVSALDYLHSEKNVVYADAKLENLMLDKDGHIKITDFGLCKEGIKDGATMKTFCGTPEYLAPEVLEDNDYGRAVDWWGLGVVMYEMMCGRLPFYNQDHEKLFELILMEEIRFPRTLGPEAKSLLSGLLKKDPKQRLGGGSEDAKEIMQHRFFAGIVWQHVYEKKLSPPFKPQVTSETDTRYFDEEFTAQMITITPPDQDDSMECVDSERRPHFPQFSYSASGTA", "note": "[R273A;L275A]", "effect of a mutation on the interaction": "disrupting interaction strength"}
{"variant": "MSDVAIVKEGWLHKRGEYIKTWRPRYFLLKNDGTFIGYKERPQDVDQREAPLNNFSVAQCQLMKTERPRPNTFIIRCLQWTTVIERTFHVETPEEREEWTTAIQTVADGLKKQEEEEMDFRSGSPSDNSGAEEMEVSLAKPKHRVTMNEFEYLKLLGKGTFGKVILVKEKATGRYYAMKILKKEVIVAKDEVAHTLTENRVLQNSRHPFLTALKYSFQTHDRLCFVMEYANGGELFFHLSRERVFSEDRARFYGAEIVSALDYLHSEKNVVYRDLKLENLMLDKDGHIKITDFGLCKEGIKDGATMKTFCGTPEYLAPEVLEDNDYGRAVDWWGLGVVMYEMMCGRLPFYNQDHEKLFELILMEEIRFPATAGPEAKSLLSGLLKKDPKQRLGGGSEDAKEIMQHRFFAGIVWQHVYEKKLSPPFKPQVTSETDTRYFDEEFTAQMITITPPDQDDSMECVDSERRPHFPQFSYSASGTA", "note": "[R370A;L372A]", "effect of a mutation on the interaction": "decreasing interaction strength"}
